Assay results published in US7629468B2 (Janssen Pharmaceutica NV, priority 2003, dated 2009).

The chains behind the UniProt entries cited, without tags or fusion partners. Residues count along the entry.
UniProt P23385, 19-1199 limits assumed: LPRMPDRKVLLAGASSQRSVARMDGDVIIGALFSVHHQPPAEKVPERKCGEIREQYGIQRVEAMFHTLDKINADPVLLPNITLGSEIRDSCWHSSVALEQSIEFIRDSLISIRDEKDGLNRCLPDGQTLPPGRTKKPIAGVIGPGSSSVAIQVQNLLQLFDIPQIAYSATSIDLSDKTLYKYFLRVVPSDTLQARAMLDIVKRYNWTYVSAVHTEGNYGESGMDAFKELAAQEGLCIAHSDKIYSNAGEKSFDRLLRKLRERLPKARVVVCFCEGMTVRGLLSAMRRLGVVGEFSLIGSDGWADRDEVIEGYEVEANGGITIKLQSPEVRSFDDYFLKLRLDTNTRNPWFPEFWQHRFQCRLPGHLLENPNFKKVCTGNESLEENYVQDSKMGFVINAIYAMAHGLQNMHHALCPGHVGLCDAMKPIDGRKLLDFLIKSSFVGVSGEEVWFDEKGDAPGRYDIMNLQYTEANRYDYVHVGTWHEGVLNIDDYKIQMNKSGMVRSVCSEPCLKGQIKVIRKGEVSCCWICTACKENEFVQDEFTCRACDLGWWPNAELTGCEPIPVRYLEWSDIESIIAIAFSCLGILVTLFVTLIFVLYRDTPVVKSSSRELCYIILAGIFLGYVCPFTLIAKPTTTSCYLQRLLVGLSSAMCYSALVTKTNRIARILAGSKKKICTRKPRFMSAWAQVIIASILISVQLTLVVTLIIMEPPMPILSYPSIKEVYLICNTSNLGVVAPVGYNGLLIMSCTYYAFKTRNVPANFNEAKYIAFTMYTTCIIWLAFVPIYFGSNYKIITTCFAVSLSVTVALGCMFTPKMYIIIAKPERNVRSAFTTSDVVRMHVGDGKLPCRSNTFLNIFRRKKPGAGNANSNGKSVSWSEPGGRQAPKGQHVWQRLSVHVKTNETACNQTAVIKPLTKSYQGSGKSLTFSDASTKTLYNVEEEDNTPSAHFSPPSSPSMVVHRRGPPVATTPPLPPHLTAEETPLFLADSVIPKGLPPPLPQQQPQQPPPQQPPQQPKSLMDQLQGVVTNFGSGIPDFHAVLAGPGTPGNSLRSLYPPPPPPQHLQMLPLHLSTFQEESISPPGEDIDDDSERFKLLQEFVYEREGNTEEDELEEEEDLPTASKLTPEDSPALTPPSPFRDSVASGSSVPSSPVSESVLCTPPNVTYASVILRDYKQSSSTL

These molecules were tested against cloned rat mGluR1 receptor (Rattus norvegicus, UniProt P23385) (assay: Signal transduction at the cloned rat mGluR1 receptor in CHO cells (glutamate-induced intracellular Ca2+ rise, FLIPR)). Details: 50% inhibition of glutamate-induced intracellular Ca2+ rise, CHO cells expressing mGluR1, compounds added for 20 minutes.
Assay type: cell-based

| pIC50 | SMILES |
| --- | --- |
| 7.13 | O=C(Cc1ccc(F)c(F)c1)c1ccc2nc3c(cc2c1)CCCO3 |
| 7.35 | CCc1cc2cc(C(=O)Cc3ccccc3)ccc2nc1Cl |
| 7.11 | CCCc1cc2cc(C(=O)CC3CC4CCC3C4)ccc2nc1C (centres unmarked) |

More lines, now with the values behind:

| SMILES | pIC50 |
| --- | --- |
| CCc1cc2cc(C(=O)CC3CC4CCC3C4)ccc2nc1C (centres unmarked) | 7.22 |
| O=C(CC1(F)CC2CCC1C2)c1ccc2nc3c(cc2c1)CCCO3 (centres unmarked) | 7.34 |
